Assay: Phase 1 MAD study of ALT-801: adverse events (TEAEs), safety overview
Conditions: M3 2.4 mg (N = 11)

CC[C@H](C)[C@H](NC(=O)[C@H](Cc1ccccc1)NC(=O)[C@H](CCC(=O)O)NC(=O)[C@@H]1CCCCNC(=O)CC[C@H](NC(=O)[C@H](CC(=O)O)NC(=O)[C@H](CC(C)C)NC(=O)[C@H](Cc2ccc(O)cc2)NC(=O)[C@H](CCCCN)NC(=O)[C@H](CO)NC(=O)[C@H](Cc2ccc(O)cc2)NC(=O)[C@H](CC(=O)O)NC(=O)[C@H](CO)NC(=O)[C@@H](NC(=O)[C@H](Cc2ccccc2)NC(=O)[C@@H](NC(=O)CNC(=O)[C@H](CCC(N)=O)NC(=O)C(C)(C)NC(=O)[C@@H](N)Cc2c[nH]cn2)[C@@H](C)O)[C@@H](C)O)C(=O)N[C@@H](CCCCNC(=O)[C@H]2O[C@@H](OCCCCCCCCCCCCCCCCCC(=O)O)[C@H](O)[C@@H](O)[C@@H]2O)C(=O)N[C@@H](C)C(=O)N[C@@H](C)C(=O)N1)C(=O)N[C@@H](CCC(N)=O)C(=O)N[C@@H](Cc1c[nH]c2ccccc12)C(=O)N[C@@H](CC(C)C)C(=O)N[C@@H](CC(C)C)C(=O)N[C@@H](CCC(N)=O)C(=O)N[C@H](C(N)=O)[C@@H](C)O [ALT-801, pemvidutide]
(9.1%): TEAE Dyspepsia; Mild; % | TEAE Early satiety; Mild; % | TEAE Fungal skin; Mild; % | TEAE Haematemesis; Mild; % | TEAE Injection site bruising; Mild; %
5: TEAE Gastrointestinal disorders; Mild; n | TEAE Gastrointestinal disorders; Moderate; n
(45.5%): TEAE Gastrointestinal disorders; Mild; % | TEAE Gastrointestinal disorders; Moderate; %
1: TEAE Dyspepsia; Mild; n | TEAE Early satiety; Mild; n | TEAE Fungal skin; Mild; n | TEAE Haematemesis; Mild; n | TEAE Injection site bruising; Mild; n
(27.3%): TEAE Infections and infestations; Mild; %
(0.0%): TEAE Diarrhoea; Severe; % | TEAE Dyspepsia; Moderate; % | TEAE Dyspepsia; PLT; % | TEAE Dyspepsia; Severe; % | TEAE Early satiety; Moderate; % | TEAE Early satiety; PLT; % | TEAE Early satiety; Severe; % | TEAE Eye disorders; Mild; % | TEAE Eye disorders; Moderate; % | TEAE Eye disorders; PLT; % | TEAE Eye disorders; Severe; % | TEAE Eye pain; Mild; % | TEAE Eye pain; Moderate; % | TEAE Eye pain; PLT; % | TEAE Eye pain; Severe; % | TEAE Fatigue; Mild; % | TEAE Fatigue; Moderate; % | TEAE Fatigue; PLT; % | TEAE Fatigue; Severe; % | TEAE Food poisoning; Mild; % | TEAE Food poisoning; Moderate; % | TEAE Food poisoning; PLT; % | TEAE Food poisoning; Severe; % | TEAE Fungal infection; Mild; % | TEAE Fungal infection; Moderate; % | TEAE Fungal infection; PLT; % | TEAE Fungal infection; Severe; % | TEAE Gastrointestinal disorders; PLT; % | TEAE Gastrointestinal disorders; Severe; % | TEAE Haematemesis; Moderate; % | TEAE Haematemesis; PLT; % | TEAE Haematemesis; Severe; % | TEAE Infections and infestations; Moderate; % | TEAE Infections and infestations; PLT; % | TEAE Infections and infestations; Severe; % | TEAE Injection site bruising; Moderate; % | TEAE Injection site bruising; PLT; %
0: TEAE Diarrhoea; PLT; n | TEAE Diarrhoea; Severe; n | TEAE Dyspepsia; Moderate; n | TEAE Dyspepsia; PLT; n | TEAE Dyspepsia; Severe; n | TEAE Early satiety; Moderate; n | TEAE Early satiety; PLT; n | TEAE Early satiety; Severe; n | TEAE Eye disorders; Mild; n | TEAE Eye disorders; Moderate; n | TEAE Eye disorders; PLT; n | TEAE Eye disorders; Severe; n | TEAE Eye pain; Mild; n | TEAE Eye pain; Moderate; n | TEAE Eye pain; PLT; n | TEAE Eye pain; Severe; n | TEAE Fatigue; Mild; n | TEAE Fatigue; Moderate; n | TEAE Fatigue; PLT; n | TEAE Fatigue; Severe; n | TEAE Food poisoning; Mild; n | TEAE Food poisoning; Moderate; n | TEAE Food poisoning; PLT; n | TEAE Food poisoning; Severe; n | TEAE Fungal infection; Mild; n | TEAE Fungal infection; Moderate; n | TEAE Fungal infection; PLT; n | TEAE Fungal infection; Severe; n | TEAE Gastrointestinal disorders; PLT; n | TEAE Gastrointestinal disorders; Severe; n | TEAE Haematemesis; Moderate; n | TEAE Haematemesis; PLT; n | TEAE Haematemesis; Severe; n | TEAE Infections and infestations; Moderate; n | TEAE Infections and infestations; PLT; n | TEAE Infections and infestations; Severe; n | TEAE Injection site bruising; Moderate; n
3: TEAE Infections and infestations; Mild; n
